Results taken from patent US8895313B2, “Ligands for aggregated tau molecules” (Wista Laboratories Ltd., priority 2008, dated 2014).

The chains behind the UniProt entries cited, without tags or fusion partners. Residues count along the entry.
UniProt P10636, 623-708 limits assumed: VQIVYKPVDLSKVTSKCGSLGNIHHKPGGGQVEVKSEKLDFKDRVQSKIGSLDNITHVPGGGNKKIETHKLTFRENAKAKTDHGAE

Target: PHF (paired helical filaments) isolated from the brain of an Alzheimer's disease patient (Homo sapiens, UniProt P10636)
Test: Competitive binding assay: displacement of primulin fluorescence from PHFs
Details: read-out: P50; value in brackets: measured in 10% DMSO; reference ligand; tested form: Na salt
Procedure: The DSB compounds were tested for their ability to bind to PHF in a competition-style assay.
If a test compound that also binds to PHFs with the same or greater affinity is added, it will displace the reference ligand and reduce the fluorescence signal. In the present assay, the reference compound is primulin, which was added at 1 μM. Test compounds were added at concentrations from 0.05 to 1 μM. The P50 for a test compound is defined as the concentration of compound that reduces the primulin signal to 50% of the control value. This value is, therefore, not an absolute affinity, but a relative affinity compared to the affinity of primulin. […]
The assay for ligand activity was performed in 96 well plates (Nunc Cat. No. 236108). […] The concentration of PHFs added was determined for each preparation to give an adequate fluorescence signal, and was typically in the range 1-2 μl/100 μl. […] The control fluorescence, in the absence of PHFs, was also measured in the presence of 10% DMSO.
The fluorescence was measured in a Varian Carey Eclipse Fluorescence Spectrophotometer, with the […] wavelength at 480 nm. Excitation spectra were recorded and corrected by subtraction of the signal measured in the absence of PHFs, using the Varian software. The fluorescence signal at the peak […] wavelength of 420 nm was measured from the corrected spectra. […]

IC50: 1 µM
Compound: Cc1ccc2nc(-c3ccc4nc(-c5ccc(N)cc5)sc4c3)sc2c1S(=O)(=O)O
